Measurements from US6774121B1, “Phospholipid prodrugs of anti-proliferative drugs” (D-Pharm, Ltd., priority 1999, dated 2004).

System: L1210-MTX-TAX (resistant to MTX and Taxol, increased P-gp activity)
Assay: cells
Settings: Mus musculus, read-out: EC50, nMol

Compound	EC50
CN(Cc1cnc2nc(N)nc(N)c2n1)c1ccc(C(=O)N[C@@H](CCC(=O)O)C(=O)O)cc1 [MTX, Methotrexate]	987 nM
CC(=O)O[C@H]1C(=O)[C@@]2(C)[C@H]([C@H](OC(=O)c3ccccc3)[C@]3(O)C[C@H](OC(=O)[C@H](O)[C@@H](NC(=O)c4ccccc4)c4ccccc4)C(C)=C1C3(C)C)[C@]1(OC(C)=O)CO[C@@H]1C[C@@H]2O [TAX, Taxol]	1850 nM
